The target in this data set is GluA2Qflip AMPA receptor subunit (Rattus norvegicus, UniProt P19491-2 P19491-2:22-883). Briefly: inhibition; closed-channel state, 100 uM glutamate, whole-cell current, -60 mV, pH 7.4, 22 C. Conditions: tags: transiently expressed in HEK-293S cells; chain copies: 4 (inferred).

These results are taken from patent US20130289100 (The Research Foundation for the State University of New York, published 2013).

B1: AF44/AF42 pair (ssRNA)
RNA 1: GGGAGAAUUCAACUGCCACGGAUAAUAGCCAAUACUACAACCGU
RNA 2: GGGAACGGUGCCAGUCCGAAACGGAUCGUUAGAGCAUCAGUA
B1: the Ki was 1500 nM.
